# Screening results: PubChem BioAssay, ICCB-Longwood Screening Facility, Harvard Medical School
# GIV Gai3 FP: blocks GIV peptide binding to rat Galpha-i3. P08753. Galpha-i3/FITC-GIV peptide fluorescence polarization, 90 min; stronger effect = lower value; scaled: aluminum fluoride 0%, vehicle 100%. percent of control (FP), % (test concentration not listed). 0.42% of 210,000 active. AID 1224905;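 active = replicate mean at 85% of control or lower, very high polarization wells dropped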;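 note: wells of about 15 µL received 100 nL stock; the first replicate is given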
# HCMV NEC inh: disrupts HCMV UL50-UL53 complex binding | HTRF UL50-UL53 interaction, normalized percent inhibition | inhibition, % (no concentration beside the values) | 190,000 compounds, 0.15% hits | AID 1918969; in the data active = inhibition above about 27%, passing the limit was not always enough
# GIV Gai FP conf: confirmation of inhibitors of GIV binding to rat Galpha-i3; shares compounds with GIV Gai3 FP; FITC-GIV peptide binding to Galphai3, fluorescence polarization; active compounds read low; fluorescence polarization, mP at 100 µM; 580 compounds, 38% hits; AID 1259350;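 active = inhibition score of 15 or more, meaning 100 minus mean polarization as percent of control over three replicates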;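 also: lower mP means peptide displaced from Galphai3 so more inhibition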
# GIV Gai AS conf: GIV-Galpha-i3 inhibition, AlphaScreen confirmation; shares compounds with GIV Gai3 FP; AlphaScreen Galphai3-GIV binding, purified proteins, 90 min; active compounds read low; AlphaScreen counts at 100 µM; 580 compounds, 39% hits; AID 1259351;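 active = inhibition score at or above a set limit, where the score is 100 minus the three-replicate mean percent of control signal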
# The depositor's hits bear a star; x = not tested or not shown. Most compounds without a hit are left out; they make up all but 0.46% or so of the library.
# Below each compound: GIV Gai AS conf	HCMV NEC inh	GIV Gai FP conf	GIV Gai3 FP
COc1ccc(N2CCN(/C=C(\C#N)c3nc4ccccc4s3)CC2)cc1
 : x	5	x	-61*
O=c1c2ccccc2nc2c(-c3nc(-c4ccc5c(c4)OCO5)no3)cccn12
 : x	-18	x	58*
O=c1c2ccccc2nc2c(-c3nc(-c4ccccc4)no3)cccn12
 : x	-27	x	118
O=c1cc(-c2ccccc2)nc(-c2ccccc2)o1
 : x	-5	x	101
CN(C)c1ccc(-c2nc(-c3cccc(I)c3)cc(=O)o2)cc1
 : x	x	x	-18*
COc1ccc(C(=O)NCc2ccoc2C(=O)O)cc1
 : x	-13	x	x
COc1ccccc1OCc1ccoc1C(=O)O
 : 18278*	-5	69	82*
Cc1c(C(=O)O)sc2ncnc(NCCC3=CCCCC3)c12
 : x	x	x	110
Cc1sc2nc(-c3cccs3)oc(=O)c2c1C
 : x	0	x	x
Cc1sc2nc(/C=C/c3ccco3)oc(=O)c2c1C
 : 46890	-9	60	79*
Nc1cccc2c1C(=O)N(CC(=O)O)C2=O
 : 47777	-41	72	81*
Nc1cccc2c1C(=O)N(CC(=O)NC13CC4CC(CC(C4)C1)C3)C2=O
 : x	-17	x	x
CC(=O)N1CCc2cc(C(O)CN3CCN(c4cccc(C)c4C)CC3)ccc21 (stereo unspecified)
 : x	-21	x	100
COc1ccc(C2c3sc(=O)[nH]c3SC3C(=O)N(c4ccccc4)C(=O)C32)cc1 (stereo unspecified)
 : x	-25	x	112
O=C1NC(=O)C2C1Sc1[nH]c(=O)sc1C2c1ccco1 (stereo unspecified)
 : 3023*	-86	65	78*
COC(=O)Cn1c(=NC(C)=O)sc2cc(Br)ccc21
 : x	-14	x	x
O=C(Cn1cc(/C=c2/sc3nc4ccccc4n3c2=O)c2ccccc21)N1CCCC1
 : 43306	-27	78	80*
O=C(Cn1cc(/C=c2/sc3nc4ccccc4n3c2=O)c2ccccc21)Nc1ccccc1
 : x	x	x	108
COc1ccc(OC)c(/C=c2\sc3nc4ccccc4n3c2=O)c1
 : 38058	-7	52*	89
COc1ccc(/C=c2/sc3nc4ccccc4n3c2=O)cc1
 : x	9	x	x
CC1=C(C(=O)OC2CCCCC2)C(c2coc3ccc(Cl)cc3c2=O)C2=C(CCCC2=O)N1 (stereo unspecified)
 : x	-20	x	105
CC1=C(C(=O)OC2CCCCC2)C(c2coc3ccc(Cl)cc3c2=O)C2=C(CC(C)(C)CC2=O)N1 (stereo unspecified)
 : 54497	-10	63	92
CCOC(=O)N1CCN(C(=S)Nc2ccc(C)c(C)c2)CC1
 : x	-14	x	x
CCOC(=O)N1CCN(C(=S)Nc2ccc3nsnc3c2)CC1
 : 21787	-76	61*	77*
O=C1C(=O)N(c2ccc(O)cc2)C(c2ccccc2F)/C1=C(/O)c1ccccc1 (stereo unspecified)
 : x	x	x	104
C=CCn1c(SCC(=O)Nc2ccccc2)nc2sc(C)c(C)c2c1=O
 : x	x	x	99
O=C(Nc1ccc(N2CCOCC2)c2nonc12)c1cccs1
 : x	4	x	110
COc1ccc(NC(=S)Nc2ccc(N3CCOCC3)c3nonc23)cc1OC
 : 23631*	-63	56*	72*
Nc1ncccc1Cl
 : x	-15	x	103
CC(=O)C12c3ccccc3C(c3ccccc31)C1C(=O)N(c3ccc(C)c(Cl)c3)C(=O)C12 (stereo unspecified)
 : x	x	x	105
COC(=O)CNC(=O)NCCCn1c(C(F)(F)F)nc2cccnc21
 : 26853	-8	59*	80*
O=C(NCCc1ccccc1)NCCn1c(C(F)(F)F)nc2cccnc21
 : x	-2	x	116
Cc1ccc2oc(=O)c(/C=C(\O)c3ccco3)nc2c1
 : x	-24	x	109
COc1ccc(/C(O)=C/c2nc3cc(C)ccc3oc2=O)c(OC)c1
 : 40985	-23	147	54*
CCn1cc(/C=C2/C(=O)N(c3ccccc3)N=C2C)c2ccccc21
 : x	-41	x	x
CCn1cc(/C=C2/C(=O)N(c3ccccc3)c3ccccc32)c2ccccc21
 : 38150	x	69	53*
CC(C)(C)SCC(=O)N1CCN(c2ncc(C(F)(F)F)cc2Cl)CC1
 : x	1	x	104
Oc1ccc(Cl)cc1C=Nc1cccc2nsnc12
 : 6922*	26	58*	74*
Cc1ccc(C=Nc2cccc3nsnc23)c(O)c1
 : x	-33	x	101
Cc1ccc(NS(=O)(=O)c2cc(-c3nc(C)c(C)s3)sc2C)cc1Cl
 : x	x	x	109
CC(C)=NNC(=O)Cc1c[nH]c2cccc(OCC(O)CNC(C)(C)C)c12 (stereo unspecified)
 : 32755	-26	76	90
CC(C)OC(=O)c1cc2c(OCC(O)CNC(C)(C)C)cccc2[nH]1 (stereo unspecified)
 : x	-14	x	x
CC1=CC(=O)C(CCOCCC2=CC(=O)C(C)=CC2=O)=CC1=O
 : x	-23	x	110
CC(C)(C)c1ccc(S(=O)(=O)Nc2cc3[nH]c(=O)[nH]c3cc2Cl)cc1
 : x	-19	x	104
CC1=NN(c2ccc3c(S(=O)(=O)O)cc(S(=O)(=O)O)cc3c2)C(=O)C1
 : 4060*	x	43*	51*
CC1=NN(c2ccc(N)cc2)C(=O)C1
 : x	24	x	95
Cc1ccccc1C(=O)Nc1cc(C)c2c(=O)oc3ccccc3c2n1
 : x	x	x	109
COc1cc(C(=O)Nc2cc(C)c3c(=O)oc4ccccc4c3n2)cc(OC)c1OC
 : 37152	12	73	152
COCCNC(=O)c1ccc2c(=O)n(Cc3ccco3)c(SCC(=O)Nc3ccc(C)cc3)nc2c1
 : x	x	x	112
CN1CCCc2cc(CN)ccc21
 : 4022*	0	54*	69*
CCOc1ccc(CC(=O)NCC(c2ccc3c(c2)CCCN3C)N2CCCC2)cc1 (stereo unspecified)
 : x	-13	x	105
COCCn1ccc2c(OCC(=O)c3ccccc3)cccc2c1=O
 : x	-18	x	100
CC12CCC(=O)N1C(C(=O)OCn1nnc3ccccc3c1=O)CS2 (stereo unspecified)
 : x	-19	x	x
CC1=C(C(=O)Nc2ccc(C)cc2C)C(c2ccc(F)c(Br)c2)n2ncc(C(=O)Nc3ccc(C)cc3)c2N1 (stereo unspecified)
 : x	0	x	107
O=C(NN1C(=O)S/C(=C/c2ccc(Cl)cc2)C1=S)c1ccccc1Cl
 : x	x	x	101
O=C1C(=Cc2cccn2-c2ccc(O)cc2)C(=O)c2ccccc21
 : 19282*	x	6.1*	72*
O=C(O)c1cccc(-n2cccc2C=C2C(=O)c3ccccc3C2=O)c1
 : x	x	x	107
CCOC(=O)c1ccc(N=Cc2ccc(Cl)c(Cl)c2)cc1
 : x	-7	x	105
Cc1cc(-n2nc(-c3cccc(C(F)(F)F)c3)cc2N)nc2c1c(C)nn2C
 : x	-3	x	98
O=c1cc(-c2ccccc2)oc2cc(Cl)ccc12
 : x	-8	x	x

# Next part
# Below each compound: GIV Gai AS conf	HCMV NEC inh	GIV Gai FP conf	GIV Gai3 FP
Nc1cc(N)c2cc(-c3ccccc3)oc2c1
 : 30925	95*	66	81*
CC(=O)N=C1S/C(=C\c2cccc(F)c2)C(=O)N1c1ccc(C)c(C)c1
 : x	x	x	111
COc1ccc(Oc2coc3cc(OC(=O)c4ccc(OC)c(OC)c4)ccc3c2=O)cc1
 : x	x	x	101
Cc1cc(N2Cc3ccccc3C2)ccc1/C=C1/C(=O)NC(=O)N(C2CCCCC2)C1=O
 : 48945	x	71	87
Cc1ccc(/C=C2/C(=O)NC(=O)N(C3CCCCC3)C2=O)cc1
 : x	-1	x	101

# An excerpt from above in order of formula weight, low to high:
# Below each compound: GIV Gai AS conf	HCMV NEC inh	GIV Gai FP conf	GIV Gai3 FP
Cc1ccc(/C=C2/C(=O)NC(=O)N(C3CCCCC3)C2=O)cc1
 : x	-1	x	101
CC(=O)N=C1S/C(=C\c2cccc(F)c2)C(=O)N1c1ccc(C)c(C)c1
 : x	x	x	111
Cc1cc(N2Cc3ccccc3C2)ccc1/C=C1/C(=O)NC(=O)N(C2CCCCC2)C1=O
 : 48945	x	71	87

# Some of the entries above in another layout.
SMILES	GIV Gai AS conf	HCMV NEC inh	GIV Gai FP conf	GIV Gai3 FP
COc1ccc(Oc2coc3cc(OC(=O)c4ccc(OC)c(OC)c4)ccc3c2=O)cc1	x	x	x	101
Cc1cc(N2Cc3ccccc3C2)ccc1/C=C1/C(=O)NC(=O)N(C2CCCCC2)C1=O	48945	x	71	87
Cc1ccc(/C=C2/C(=O)NC(=O)N(C3CCCCC3)C2=O)cc1	x	-1	x	101
